The values below come from patent US20210260064A1, “POZIOTINIB COMBINATIONS WITH AN ANTI-HER1, HER2 OR HER4 ANTIBODY AND METHODS OF USE THEREOF” (Spectrum Pharmaceuticals, Inc., priority 2018, published 2021).

Assay [1] deals with NSCLC patients having EGFR activating mutations. The note with it: in vivo; cited from earlier work.
In a further assay the test system is HER2-positive GC cells. The note with it: cited from earlier work.
The subject of assay [2] is patients with HER2-poisitive GC resistant to trastuzumab. To be noted: phase I; cited from earlier work.
The next assay has as its system HER2-positive GC. The note with it: cited from earlier work.
The next assay deals with MBA-MB-453 cells. Nature of the assay: Combination of poziotinib with other anticancer drugs, synergy on proliferation. The class given is cell-based. The note with it: HER2 overexpressed trastuzumab resistant breast cancer cells; concentrations equal to or lower than the GI50 of poziotinib alone.
Another assay has as its system BT-474 cells. The description is as above. Type of assay: cell-based. To be noted: HER2-overexpressed, ER-negative breast cancer cells.
Another assay concerns N-87 cells. Nature of the assay: Combination of poziotinib with other anticancer drugs, synergy. Type of assay: cell-based. To be noted: HER2-overexpressed gastric cancer cell line.

For `COc1cc2ncnc(Nc3ccc(F)c(Cl)c3)c2cc1OCCCN1CCOCC1` [gefitinib], the “Patients observed to be resistant due to the EGFR T790M mutation” value in assay [1] is given as “about 60%”.

For the compound DS8201a, in the assay on HER2-positive GC cells, the anti-tumor activity result was “potent anti-tumor'activity”. Further, in assay [2], the DCR was 78% and the ORR is 44%.

On to “trastuzumab: humanized anti-HER2 IgG1 monoclonal antibody”, for which the “Effect of trastuzumab beyond progression on PFS and ORR” value in the assay with HER2-positive GC (prospective phase II study, second-line) is “failed to improve PFS and the ORR”. Besides, the “Effect of trastuzumab beyond progression on PFS and OS” value in the assay on HER2-positive GC (retrospective study) is “increased PFS and OS”. For the same compound, the “synergistic effect when combined with poziotinib” value in the assay on MBA-MB-453 cells is given as “excellent synergistic effect”; in the assay with BT-474 cells, “weak synergistic effect”; in the assay with N-87 cells it was “synergistic effect was observed at some concentrations”.
